This is an account of results in US4695545A, “Culture and process for producing A41030 antibiotics” (Eli Lilly and Company, priority 1984, dated 1987).

The conditions of the data set: mice.

With A41030 factor B, the LD50 was > 300 mg/kg and the acute toxicity was > 300 mg/kg.

On to A41030 factor C, for which the LD50 is > 300 mg/kg and the acute toxicity was > 300 mg/kg.

As a reminder, the LD50 is the dose expected to kill half of the subjects tested.
